The values below come from ChEMBL document CHEMBL4706705 (Bioorg Med Chem, 2021).

Amino acid sequences for entries named in this document (tags omitted).
UniProt P00533, whole entry: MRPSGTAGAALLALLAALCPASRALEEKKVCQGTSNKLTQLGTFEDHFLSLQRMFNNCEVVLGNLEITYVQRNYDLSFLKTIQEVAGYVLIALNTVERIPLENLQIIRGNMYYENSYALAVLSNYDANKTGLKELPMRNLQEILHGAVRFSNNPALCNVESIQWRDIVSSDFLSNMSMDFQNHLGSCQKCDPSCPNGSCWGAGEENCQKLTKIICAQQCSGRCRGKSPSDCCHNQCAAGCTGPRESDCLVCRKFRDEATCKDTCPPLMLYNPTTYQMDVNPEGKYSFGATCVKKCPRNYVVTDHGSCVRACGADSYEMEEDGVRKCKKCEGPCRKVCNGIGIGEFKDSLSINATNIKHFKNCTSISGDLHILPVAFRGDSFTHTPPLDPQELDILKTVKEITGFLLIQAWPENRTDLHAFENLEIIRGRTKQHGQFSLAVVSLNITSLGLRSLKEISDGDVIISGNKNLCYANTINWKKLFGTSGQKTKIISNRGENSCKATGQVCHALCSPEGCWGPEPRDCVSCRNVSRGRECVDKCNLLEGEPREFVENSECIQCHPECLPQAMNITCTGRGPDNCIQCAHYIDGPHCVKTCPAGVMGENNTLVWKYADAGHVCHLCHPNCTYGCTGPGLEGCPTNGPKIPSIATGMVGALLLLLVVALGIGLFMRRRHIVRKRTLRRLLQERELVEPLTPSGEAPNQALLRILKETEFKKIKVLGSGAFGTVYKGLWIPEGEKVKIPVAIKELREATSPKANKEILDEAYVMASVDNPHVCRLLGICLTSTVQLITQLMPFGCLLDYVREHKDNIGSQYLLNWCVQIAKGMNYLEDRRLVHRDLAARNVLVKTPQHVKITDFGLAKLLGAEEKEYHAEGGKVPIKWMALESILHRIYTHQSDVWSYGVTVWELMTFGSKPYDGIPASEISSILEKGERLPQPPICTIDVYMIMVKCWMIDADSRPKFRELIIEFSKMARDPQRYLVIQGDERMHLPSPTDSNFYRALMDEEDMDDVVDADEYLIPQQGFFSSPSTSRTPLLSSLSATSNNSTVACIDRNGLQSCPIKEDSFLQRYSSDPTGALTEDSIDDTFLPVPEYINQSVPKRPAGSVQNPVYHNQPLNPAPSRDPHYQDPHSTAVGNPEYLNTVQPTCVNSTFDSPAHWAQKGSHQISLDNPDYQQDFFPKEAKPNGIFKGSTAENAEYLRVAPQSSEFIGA

By IC50 is commonly meant the concentration that gives 50% inhibition. Low values mean greater potency in that assay, high ones weaker potency in that assay.

This assay concerns the target Epidermal growth factor receptor (Homo sapiens, UniProt P00533). Put plainly: Inhibition of wild-type EGFR (unknown origin) using biotinylated TK peptide as substrate measured after 30 mins by HTRF assay. In general terms: Time-resolved FRET reads energy transfer from a long-lived donor to a nearby acceptor.

Compound `C#CCn1cc(-c2ccnc(Nc3cc(NC(=O)C=C)c(N(C)CCN(C)C)cc3OC)n2)c2ccccc21` had an IC50 of 13.7 nM. This counts as double-digit nanomolar.
